The molecules below were run on Human immunodeficiency virus 1 (assay: Ratio of Kd for wild type HIV-1 Fe2(env2.0)3 peptide model of gp41 hydrophobic pocket to Ka for wild type HIV-1 Fe2(env2.0)3 peptide model of gp41 hydrophobic pocket).
Work on O=C(CCC(=O)Nc1ccc(C(=O)N[C@@H](Cc2c[nH]c3ccccc23)C(=O)O)cc1OCCc1c[nH]c2ccccc12)NCCOCCOCCOCCNC(=O)CCC(=O)Nc1ccc(C(=O)N[C@@H](Cc2c[nH]c3ccccc23)C(=O)O)cc1OCCc1c[nH]c2ccccc12 yielded a Ratio of 1.6 ×10⁻⁵ /M. O=C(CCc1c[nH]c2ccccc12)NCCCCCC(=O)Nc1ccc(C(=O)N[C@@H](Cc2c[nH]c3ccccc23)C(=O)O)cc1OCc1ccc(Cl)cc1 showed a Ratio of 1.4 ×10⁻⁵ /M. O=C(CCC(=O)Nc1ccc(C(=O)N[C@@H](Cc2c[nH]c3ccccc23)C(=O)O)cc1OCc1ccc(Cl)cc1)NCCOCCOCCOCCNC(=O)CCC(=O)Nc1ccc(C(=O)N[C@@H](Cc2c[nH]c3ccccc23)C(=O)O)cc1OCc1ccc(Cl)cc1 was tested, and the Ratio was 2.1 ×10⁻⁵ /M. Work on O=C(CCc1c[nH]c2ccccc12)NCCCCCC(=O)Nc1ccc(C(=O)N[C@@H](Cc2c[nH]c3ccccc23)C(=O)O)cc1OCCc1c[nH]c2ccccc12 yielded a Ratio of 1.4 ×10⁻⁵ /M. For Nc1ccc(C(=O)N[C@@H](Cc2c[nH]c3ccccc23)C(=O)O)cc1OCc1ccc(Cl)cc1, the Ratio was 1.2 ×10⁻⁵ /M. Molecule Nc1ccc(C(=O)N[C@@H](Cc2c[nH]c3ccccc23)C(=O)O)cc1OCCc1c[nH]c2ccccc12 has a Ratio of 1.6 ×10⁻⁵ /M.
